The source of these data is ChEMBL document CHEMBL1159017, “Akuammine and dihydroakuammine, two indolomonoterpene alkaloids displaying affinity for opioid receptors” (J Nat Prod, 1992).

Protein sequences, listed by entry. Tags and fused reporters are not part of them.
UniProt P33535, whole entry, looked up: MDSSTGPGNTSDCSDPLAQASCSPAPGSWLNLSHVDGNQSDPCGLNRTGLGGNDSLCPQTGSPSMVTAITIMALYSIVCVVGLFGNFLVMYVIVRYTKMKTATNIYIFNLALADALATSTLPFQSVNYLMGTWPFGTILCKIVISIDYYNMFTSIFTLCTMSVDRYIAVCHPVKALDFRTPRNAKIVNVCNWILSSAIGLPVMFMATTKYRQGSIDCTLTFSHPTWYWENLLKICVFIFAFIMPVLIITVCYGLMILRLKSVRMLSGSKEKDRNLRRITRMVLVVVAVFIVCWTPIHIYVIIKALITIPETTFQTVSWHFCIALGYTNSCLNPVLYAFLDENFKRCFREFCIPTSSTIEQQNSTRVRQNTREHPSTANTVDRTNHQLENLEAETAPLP

The target of this assay is Mu-type opioid receptor (Rattus norvegicus, UniProt P33535). Nature of the assay: Displacement of [3H]DAMGO from mu opioid receptor in rat central nervous system membrane. (In general: In a radioligand displacement assay an active substance lowers the binding of a labelled ligand.)

Molecules are shown by their SMILES.

Broadly, the IC50 is the concentration needed to halve the response being measured. A higher IC50 goes with a need for much substance. Turning to `CN(C(=O)Cc1ccc(Cl)c(Cl)c1)C1CCCCC1N1CCCC1` (stereo unspecified), the 50% inhibitory concentration (IC50) stood at 1 nM.
